One may read the inhibition as the change of the read-out against control, counted positive when it falls.

The chains behind the UniProt entries cited, without tags or fusion partners.
UniProt Q8VD66, whole entry: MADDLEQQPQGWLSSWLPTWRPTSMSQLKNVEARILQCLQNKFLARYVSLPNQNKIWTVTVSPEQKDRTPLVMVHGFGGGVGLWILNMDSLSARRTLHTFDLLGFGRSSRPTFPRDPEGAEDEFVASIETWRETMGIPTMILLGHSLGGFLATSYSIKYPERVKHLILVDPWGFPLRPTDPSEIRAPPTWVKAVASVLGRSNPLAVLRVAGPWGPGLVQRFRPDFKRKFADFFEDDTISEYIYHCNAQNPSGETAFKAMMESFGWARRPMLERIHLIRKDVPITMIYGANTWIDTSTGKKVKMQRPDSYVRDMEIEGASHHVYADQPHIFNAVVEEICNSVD

Only a part is listed here, and it is no random draw. Activity calls are given as the source filed them.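 The calls were made as follows: active = inhibition exceeding the mean over every tested compound plus 3 SD (cut at about 30% in these data); inactive = the rest.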

For this test, the target named is (Lyso)-N-acylphosphatidylethanolamine lipase (Mus musculus) (UniProt Q8VD66). The experiment in a line: mouse ABHD4 hydrolase activity blockers – biochemical, fluorescence polarization, primary screen (AID 720543).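 Also: 0% = plate median of compound wells and 100% = S159A mutant with DMSO.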 Conditions: purified mABHD4, FP-Rh probe fluorescence polarization; at 8.92 µM; hits give high values. The method, boiled down:
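assay system = mABHD4 protein | compound dosing = single nominal dose of 8.92 µM, 0.89% DMSO final | read-out basis = percent inhibition of probe binding, normalized to plate controls | schedule = Enzyme–compound pre-incubation 45 min, then probe 60 min, both 25 °C | detection = fluorescence polarization, excitation 525 nm, emission 598 nm, BODIPY TMR filters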
In general terms: In fluorescence polarisation assays a small probe gives low polarisation when free and higher when bound to something large.
As for `CN(C)C1(CNC(=O)c2cccc(C#N)c2)CCCCC1`, the inhibition was inactive: -0.32%. With `C/C(N)=N\P(=O)(Oc1ccccc1)Oc1ccccc1` the figure was inactive: -2.25%; with `c1ccc(CN2CCC(Nc3ccccc3)CC2)cc1`, inactive: -5.37%. `Cc1cc(N(CCCl)CCCl)ccc1C=O`: the inhibition was inactive: 1.39%. Take `O=c1[nH]c2ccccc2n1C1CCN(C(c2ccccc2)c2nnnn2C2CCCC2)CC1` (stereo not given): the inhibition is inactive: 2.23%. On to `CCCN1CCC(Nc2cc(OC)cc(OC)c2)CC1`, for which the inhibition is inactive: -5.41%. Regarding `CC(C)(C)n1nnnc1C(c1cccc2ccccc12)N1CCC(n2c(=O)[nH]c3ccccc32)CC1` (stereo not given), the inhibition is inactive: -15.8%.

Turning to `N#Cc1ccc(C(=O)NCC2(N3CCCCC3)CCCCC2)cc1`, the inhibition is inactive: 2.56%. Next, `CC(C)(C)OC(=O)N1CCC(N(C(=O)c2ccccc2)c2ccc(Cl)cc2)CC1`: inactive: -1.8%. Next, `CCOC(=O)N1CCC(Nc2ccc(C)cc2)CC1`: inactive: -3.21%. As to `COc1cccc(C(c2nnnn2C(C)(C)C)N2CCC(n3c(=O)[nH]c4ccccc43)CC2)c1OC` (stereo not given), the inhibition is inactive: 2.48%. For the molecule `N/C(=N\O)c1c(N)no[n+]1[O-]`, the inhibition is inactive: 3.72%.

`O=C(OC1CN2CCC1CC2)C1c2ccccc2C=Cc2ccccc21` (stereo not given): the inhibition is inactive: 2.36%. With `O=c1[nH]c2ccccc2n1C1CCN(C(c2cccs2)c2nnnn2C2CCCC2)CC1` (stereo not given) the figure was inactive: -7.63%; with `CCCCn1nnnc1C(c1cccc(OC)c1OC)N1CCC(n2c(=O)[nH]c3ccccc32)CC1` (stereo not given), inactive: -0.85%; with `CCCCn1nnnc1C(c1ccccc1)N1CCC(n2c(=O)[nH]c3ccccc32)CC1` (stereo not given), inactive: -6.34%. With `COc1cc(C(=O)NCC2(N3CCOCC3)CCCCC2)cc(OC)c1C` the figure was inactive: -6.49%; with `O=C(NCC1(N2CCOCC2)CCCCC1)c1cc(Br)ccc1Cl`, inactive: -0.11%; with `O=c1[nH]c2ccccc2n1C1CCN(C(c2cccs2)c2nnnn2C2CCCCC2)CC1` (stereo not given), inactive: -8.08%. In the case of `NC(=O)C1(Nc2ccccc2)CCN(Cc2ccccc2)CC1`, the inhibition was inactive: 5.2%. Consider `COc1ccc(C(=O)NCC2(N3CCOCC3)CCCCC2)cc1OC`, for which the inhibition is inactive: -5.44%.

For `O=c1[nH]c2ccccc2n1C1CCN(C(c2ccnc3ccccc23)c2nnnn2C2CCCC2)CC1` (stereo not given), the inhibition is inactive: 2.21%. In the case of `COc1cccc(C(=O)N(c2cc(C)cc(C)c2)C2CCN(C(=O)OC(C)(C)C)CC2)c1`, the inhibition is inactive: 3.47%. As to `COc1cccc(C(c2nnnn2C2CCCC2)N2CCC(n3c(=O)[nH]c4ccccc43)CC2)c1OC` (stereo not given), the inhibition was inactive: -5.47%. Take `COc1cc(OC)cc(C(=O)NCC2(N3CCOCC3)CCCCC2)c1`: the inhibition is inactive: -4.55%. Consider `CCC(CO)(C(=O)OC1CN2CCC1CC2)c1ccccc1` (stereo not given), for which the inhibition is inactive: 7.53%.

For `CN1CCC(Nc2ccc(Cl)cc2)CC1`, the inhibition was inactive: -1.93%. Next, `CCOc1ncccc1C(=O)NCC1(N2CCOCC2)CCCCC1`: inactive: 1.78%. With `CN1CCC(Nc2ccc(F)c(Cl)c2)CC1` the figure was inactive: 15.4%.

Turning to `CC(C)(C)OC(=O)N1CCC(Nc2ccccc2)CC1`, the inhibition is inactive: -3.29%. For the molecule `NN(c1ccccc1)C1CCN(CCc2ccccc2)CC1`, the inhibition is inactive: 3.06%. In the case of `O=C(O)C1(Nc2ccccc2)CCN(Cc2ccccc2)CC1`, the inhibition is inactive: -1.36%. On to `O=c1[nH]c2ccccc2n1C1CCN(C(c2cc3ccccc3o2)c2nnnn2C2CCCC2)CC1` (stereo not given), for which the inhibition was inactive: -10.5%. For `CCCOc1ccc(C(=O)NCC2(N(C)C)CCCCC2)cc1`, the inhibition is inactive: 5.83%. Next, `Cc1ccccc1NC1(C#N)CCN(Cc2ccccc2)CC1`: inactive: 5.64%; `CCN1CCC(Nc2cccc(F)c2)CC1`: inactive: 19.2%. As for `COc1ccc(C(c2nnnn2C2CCCCC2)N2CCC(n3c(=O)[nH]c4ccccc43)CC2)cc1` (stereo not given), the inhibition is inactive: 1.15%. As for `CC(C)(C)n1nnnc1C(c1ccnc2ccccc12)N1CCC(n2c(=O)[nH]c3ccccc32)CC1` (stereo not given), the inhibition was inactive: 9.78%. Consider `O=C(NCC1(N2CCCCC2)CCCCC1)c1ccco1`, for which the inhibition is inactive: -21.5%. As for `CN(C)c1ccc(C(=O)NCC2(N3CCCCC3)CCCCC2)cc1`, the inhibition was inactive: 2.11%. Next, `Cn1c(=O)[nH]cc(N(CCCl)CCCl)c1=O`: inactive: 2.35%; `COc1cccc(C(c2nnnn2C2CCCCC2)N2CCC(n3c(=O)[nH]c4ccccc43)CC2)c1OC` (stereo not given): inactive: -17%; `CC(=O)N(c1ccccc1)C1CCNCC1`: inactive: -3.56%. Next, `CCC(c1nnnn1C1CCCCC1)N1CCC(n2c(=O)[nH]c3ccccc32)CC1` (stereo not given): inactive: -12%; `COc1cc(OC)cc(C(=O)NCC2(N3CCCCC3)CCCCC2)c1`: inactive: 0.02%. Next, `O=c1[nH]c2ccccc2n1C1CCN(C(c2ccnc3ccccc23)c2nnnn2C2CCCCC2)CC1` (stereo not given): inactive: -5.31%; `Cc1ccc(C(=O)NCC2(N3CCCCC3)CCCCC2)o1`: inactive: 18.4%.

On to `Fc1ccccc1NC1CCN(Cc2ccccc2)CC1`, for which the inhibition was inactive: -3.02%. As for `Cc1ccc(NC2(C#N)CCN(Cc3ccccc3)CC2)cc1`, the inhibition was inactive: -1.58%. Next, `O=c1[nH]c2ccccc2n1C1CCN(C(c2ccccc2)c2nnnn2C2CCCCC2)CC1` (stereo not given): inactive: 4.54%; `CCOC(=O)N1CCC(Nc2cccc(C)c2)CC1`: inactive: -8.65%. Next, `COc1cc(C(=O)NCC2(N(C)C)CCCCC2)ccc1OC(F)F`: inactive: -4.02%; `O=c1[nH]c2ccccc2n1C1CCN(C(c2cccc3ccccc23)c2nnnn2C2CCCC2)CC1` (stereo not given): inactive: -6%.

On to `CC(C)(C)n1nnnc1C(c1ccccc1)N1CCC(n2c(=O)[nH]c3ccccc32)CC1` (stereo not given), for which the inhibition is inactive: -7.21%. Next, `O=C1CCN(Cc2ccccc2)CC1`: inactive: -1.08%; `CCOc1ccc(C)cc1CN(CCCl)CCCl`: inactive: 0.02%; `CCCCOc1ccc(C(=O)NCC2(N3CCOCC3)CCCCC2)cc1`: inactive: 3.47%.

Take `O=P1(N(CCCl)CCCl)SCCCS1`: the inhibition was inactive: 0.08%.

With `CCCCn1nnnc1C(c1cc2ccccc2o1)N1CCC(n2c(=O)[nH]c3ccccc32)CC1` (stereo not given), the inhibition is inactive: -5.21%.

`O=C(NCC1(N2CCCCC2)CCCCC1)c1ccc(F)cc1`: the inhibition was inactive: -2.54%.

On to `CCOC(=O)N1CCC(Nc2ccc(F)cc2)CC1`, for which the inhibition was inactive: -11.6%. For `COc1ccc(NC2CCN(CCc3ccccc3)CC2)c(OC)c1`, the inhibition was inactive: 1.37%. With `O=C(NCC1(N2CCCCC2)CCCCC1)c1ccc(Cl)nc1` the figure was inactive: 6.48%; with `O=c1[nH]c2ccccc2n1C1CCN(C(c2ccccc2OC(F)(F)F)c2nnnn2C2CCCCC2)CC1` (stereo not given), inactive: 5.07%.

As to `Cc1cc(C)cc(N(C(=O)c2ccccc2)C2CCN(C(=O)OC(C)(C)C)CC2)c1`, the inhibition is inactive: 6.45%. With `O=C(NCC1(N2CCOCC2)CCCCC1)c1cc2ccccc2o1` the figure was inactive: 6.68%. Regarding `N#CC1(Nc2ccccc2)CCN(Cc2ccccc2)CC1`, the inhibition is inactive: 1.84%. `O=C(NCC1(N2CCCCC2)CCCCC1)c1ccc(Cl)s1`: the inhibition was inactive: 7.81%. As to `O=c1[nH]c2ccccc2n1C1CCN(C(c2cc3ccccc3o2)c2nnnn2C2CCCCC2)CC1` (stereo not given), the inhibition is inactive: -4.76%. Next, `O=C(OC1CN2CCC1CC2)C1c2ccccc2Oc2ccccc21` (stereo not given): inactive: -1.44%; `COc1ccc(Cl)cc1C(=O)NCC1(N2CCOCC2)CCCCC1`: inactive: -1.83%; `CCOC(=O)N1CCC(Nc2ccc(OC)cc2)CC1`: inactive: -3.05%.

With `CCCCn1nnnc1C(c1ccc(OC)cc1)N1CCC(n2c(=O)[nH]c3ccccc32)CC1` (stereo not given), the inhibition is inactive: -2.62%. `COc1ccc(C(=O)NCC2(N3CCCCC3)CCCCC2)cc1`: the inhibition was inactive: -2.48%. In the case of `CC(C)(C)OC(=O)N1CCC(N(C(=O)c2ccccc2)c2ccc(F)cc2)CC1`, the inhibition was inactive: 1.31%. Next, `COc1ccc(C(=O)NCC2(N3CCCCC3)CCCCC2)c(OC)c1OC`: inactive: 2.34%; `CCC(c1nnnn1C1CCCC1)N1CCC(n2c(=O)[nH]c3ccccc32)CC1` (stereo not given): inactive: -1.65%; `O=C(NCC1(N2CCCCC2)CCCCC1)c1ccc(=O)[nH]c1`: inactive: -2.89%. `O=C(NCC1(N2CCCCC2)CCCCC1)c1cccs1`: the inhibition was inactive: 1.71%. With `CCCCn1nnnc1C(CC)N1CCC(n2c(=O)[nH]c3ccccc32)CC1` (stereo not given) the figure was inactive: 3.44%.

For `CCCCn1nnnc1C(c1cccs1)N1CCC(n2c(=O)[nH]c3ccccc32)CC1` (stereo not given), the inhibition was inactive: -11.4%. With `CSc1ccccc1C(=O)NCC1(N2CCCCC2)CCCCC1` the figure was inactive: 2.5%; with `Cc1cccc(NC2(C#N)CCN(Cc3ccccc3)CC2)c1`, inactive: -6.05%; with `CN1CCC(Nc2cccc(F)c2)CC1`, inactive: 15.4%. As to `O=C(NCC1(N2CCCCC2)CCCCC1)c1cncc(Br)c1`, the inhibition was inactive: 0.42%. Turning to `COc1ccc(C(c2nnnn2C2CCCC2)N2CCC(n3c(=O)[nH]c4ccccc43)CC2)cc1` (stereo not given), the inhibition was inactive: 1.18%. With `Cc1ccc(C(=O)NCC2(N(C)C)CCCCC2)o1` the figure was inactive: 2.25%; with `CCCOc1ccc(C(=O)NCC2(N(C)C)CCCCC2)cc1OC`, inactive: 7.77%. On to `CC(C)c1ccc(NC2CCN(C(=O)OC(C)(C)C)CC2)cc1`, for which the inhibition was inactive: 1.09%. On to `COc1ccc(CN(CCCl)CCCl)cc1Cl`, for which the inhibition is inactive: -9.68%.

For `COC(=O)C1(Nc2ccccc2)CCN(Cc2ccccc2)CC1`, the inhibition is inactive: -2.68%. In the case of `CN(C)c1cccc(C(=O)NCC2(N3CCCCC3)CCCCC2)c1`, the inhibition is inactive: 3.64%. Next, `COc1cc(OC)c(C(=O)NCC2(N(C)C)CCCCC2)cc1OC`: inactive: -1.25%.

For the molecule `CCC(c1nnnn1C(C)(C)C)N1CCC(n2c(=O)[nH]c3ccccc32)CC1` (stereo not given), the inhibition was inactive: -1%. Next, `O=C(NCC1(N2CCOCC2)CCCCC1)c1cc(F)c(F)cc1Cl`: inactive: 1.86%. As to `CCCCn1nnnc1C(c1ccnc2ccccc12)N1CCC(n2c(=O)[nH]c3ccccc32)CC1` (stereo not given), the inhibition is inactive: -3.94%. Turning to `O=C(NCC1(N2CCCCC2)CCCCC1)c1cccc(C(F)(F)F)c1`, the inhibition is inactive: 6.45%.

With `O=C(NCC1(N2CCOCC2)CCCCC1)c1cc(=O)[nH]c2ccccc12`, the inhibition is inactive: 3.42%. On to `COc1cc(C(=O)NCC2(N3CCCCC3)CCCCC2)ccc1OC(F)F`, for which the inhibition was inactive: 2.11%. Turning to `CC(C)c1ccc(C(=O)NCC2(N3CCOCC3)CCCCC2)cc1`, the inhibition is inactive: -6.48%. With `COc1ccc(NC2CCN(C(=O)OC(C)(C)C)CC2)cc1` the figure was inactive: -5.73%; with `CN1CCN(CCOC(=O)C(O)(c2ccccc2)c2ccccc2)CC1`, inactive: 7.09%. In the case of `CCCCn1nnnc1C(c1cccc2ccccc12)N1CCC(n2c(=O)[nH]c3ccccc32)CC1` (stereo not given), the inhibition was inactive: -30.6%.

For the molecule `CC(C)(C)n1nnnc1C(c1ccccc1OC(F)(F)F)N1CCC(n2c(=O)[nH]c3ccccc32)CC1` (stereo not given), the inhibition was inactive: -1.62%. `O=C(NCC1(N2CCCCC2)CCCCC1)c1ccc(OC(F)F)cc1`: the inhibition is inactive: 4.51%.

As to `CCN1CCC(Nc2ccc(Cl)cc2)CC1`, the inhibition is inactive: -12%.

`O=c1[nH]c2ccccc2n1C1CCN(C(c2ccccc2OC(F)(F)F)c2nnnn2C2CCCC2)CC1` (stereo not given): the inhibition is inactive: -6.97%. Next, `N#CC1(Nc2ccccc2)CCN(CCc2ccccc2)CC1`: inactive: 2.49%; `CSc1ccc(C(=O)NCC2(N3CCOCC3)CCCCC2)cc1`: inactive: -8.88%. `O=C(NCC1(N2CCCCC2)CCCCC1)c1cccc([N+](=O)[O-])c1`: the inhibition was inactive: 7.7%.
